Reference: PubChem BioAssay AID588478 (ICCB-Longwood Screening Facility, Harvard Medical School, 2011)
Only a part is listed here, and it is no random draw. Active and inactive are the calls of the source.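 Rule for the calls: active = mean inhibition over replicate wells above about 20% (limit read from the data); inactive = the rest.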

By UniProt entry, the sequences of proteins in these tests, tags left out.
UniProt Q9Y5K5, whole entry: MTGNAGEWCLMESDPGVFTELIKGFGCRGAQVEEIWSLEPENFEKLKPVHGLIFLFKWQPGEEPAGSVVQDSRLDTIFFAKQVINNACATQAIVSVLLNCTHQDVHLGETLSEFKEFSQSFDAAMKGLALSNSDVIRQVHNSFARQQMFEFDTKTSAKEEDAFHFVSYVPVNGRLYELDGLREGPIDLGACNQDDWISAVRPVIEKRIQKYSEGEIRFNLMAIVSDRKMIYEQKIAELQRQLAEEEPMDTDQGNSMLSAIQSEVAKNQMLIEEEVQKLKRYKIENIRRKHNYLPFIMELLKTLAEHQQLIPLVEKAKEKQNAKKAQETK

Biological target: Ubiquitin carboxyl-terminal hydrolase isozyme L5 (Homo sapiens) (UniProt Q9Y5K5)
Experiment: inhibitors of human UCH37 deubiquitinase, primary screen, biochemical, Ub-AMC cleavage, fluorescence (AID 588478);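 note: 0% = compound-free wells with enzyme and 100% = wells lacking proteasome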
Conditions: purified proteasome/UCH37, Ub-AMC cleavage fluorescence; stronger effect = higher value; concentration not given here
In short: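 Reagent: Ub-AMC substrate; assay system: Proteasome-associated human UCH37 deubiquitinase; controls: no-proteasome and no-compound wells; read-out: % inhibition of Ub-AMC cleavage fluorescence; timing: 30 min preincubation with enzyme, 25 min cleavage at room temperature; signal: AMC fluorescence from Ub-AMC cleavage, excitation 355 nm, emission 460 nm; buffer or medium: Tris-HCl pH 7.4 plus ovalbumin, ATP-MgCl2, DTT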

| SMILES | inhibition |
| --- | --- |
| O=[N+]([O-])c1cccc(NC2=NCC(CBr)S2)c1 (stereo not drawn) | inactive: 2.47% |
| O=[N+]([O-])c1ncn(CCn2ncnc2[N+](=O)[O-])n1 | inactive: 2.23% |
| CC(C)(C)C(=O)NC(Sc1ccncn1)C(Cl)(Cl)Cl (stereo not drawn) | inactive: 3.01% |
| CP(=O)(OC12CC3CC(CC(C3)C1)C2)OC12CC3CC(CC(C3)C1)C2 | inactive: 2.9% |
| O=C(Nc1cc([As](=O)(O)O)ccc1O)c1ccccc1 | inactive: 2.3% |
| O=P1(N(CCCl)CCCl)OCCCS1 (stereo not drawn) | inactive: -0.0903% |
| Nc1ccc2c(ccc3cccnc32)n1.O=[N+]([O-])c1cc([N+](=O)[O-])c(O)c([N+](=O)[O-])c1 | inactive: -42% |
| CC1CCN(C(=O)Oc2c(Cl)cc(Cl)c3cccnc23)CC1 | inactive: -0.956% |
| CN(C)C(=O)c1c([N+](=O)[O-])cc([N+](=O)[O-])cc1[N+](=O)[O-] | inactive: 10.9% |
| CP(=O)(Nc1ccc(Cl)cc1)Oc1ccc(F)cc1 (stereo not drawn) | inactive: 3.58% |
| Nc1ccc([As](=O)(O)c2ccc(N)cc2)cc1 | inactive: 2.74% |
| CC(C)(C)c1ccc(OP(C)(=O)O)cc1 | inactive: -0.0765% |
| COc1ccccc1OP(C)(=O)Nc1ccccc1Br (stereo not drawn) | inactive: 3.44% |
| C[N+]1=C2C=CC=CC=C2SC12C([N+](=O)[O-])=CC([N+](=O)[O-])=C[C-]2[N+](=O)[O-] (stereo not drawn) | inactive: 9.02% |
| Cc1ccc(NP(=O)(Oc2ccccc2)Oc2ccccc2)nc1 | inactive: -1.7% |
| CP(=O)(Oc1ccccc1)N1CCOC1=O (stereo not drawn) | inactive: 2.35% |
| O=[N+]([O-])c1cc([N+](=O)[O-])c(CCNc2ccccc2)c([N+](=O)[O-])c1 | inactive: 3.66% |
| CCc1nc2c(n1)c1c(non1O)c1c2no[n+]1[O-] | inactive: 11.8% |
| CCc1ccc(OP(C)(=O)Nc2cccnc2)cc1 (stereo not drawn) | inactive: 1.88% |
| COc1ccccc1OP(C)(=O)Nc1c(C)n(C)n(-c2ccccc2)c1=O (stereo not drawn) | inactive: 0.32% |
| CC(=O)N1C2C3N(C(C)=O)C1C1N(C(C)=O)C(C(N1C(C)=O)N3C(C)=O)N2C(C)=O | inactive: 1.37% |

| SMILES | inhibition |
| --- | --- |
| O=[N+]([O-])c1cccc2n[nH]nc12 | inactive: 5.67% |
| O=C(OCCCN1CCCC1)C(O)(c1ccccc1)C1CCCCC1 (stereo not drawn) | inactive: 2.63% |
| CCN(CC)CC(O)COC(=O)C(O)(c1ccccc1)C1CCCCC1 (stereo not drawn) | inactive: -0.547% |
| COc1ccc(C2=NCC(CBr)S2)cc1 (stereo not drawn) | inactive: 6.25% |
| COc1ccc(OP(C)(=O)Nc2ccc(Br)cc2)cc1 (stereo not drawn) | inactive: 4.56% |
| CCC(C)N(CC(C)C)C(=S)SC(NC(C)=O)C(Cl)(Cl)Cl (stereo not drawn) | inactive: 5.34% |
| CP(=O)(Nc1ccccn1)Oc1ccc(Cl)cc1 (stereo not drawn) | inactive: -0.356% |
| O=C(OC1CN2CCC1CC2)c1cccc([N+](=O)[O-])c1 (stereo not drawn) | inactive: 3.54% |
| CCOP(C)(=S)SCC(=O)NC(C)C(=O)O (stereo not drawn) | inactive: 1.3% |
| O=[N+]([O-])c1cc([N+](=O)[O-])c(O)c([N+](=O)[O-])c1.c1ccc(Oc2ccncc2)cc1 | inactive: 16.9% |
| CCOC(=O)c1ccc(NC(=O)C(C)(CCl)SC)cc1 (stereo not drawn) | inactive: 2.99% |
| CCOC(=O)c1ccc(NP(C)(=O)Oc2ccc(OC)cc2)cc1 (stereo not drawn) | inactive: 5.31% |
| CCc1ccc(OP(C)(=O)N2CCN(c3ccc([N+](=O)[O-])cc3)CC2)cc1 (stereo not drawn) | inactive: 8.19% |
| CP(=O)(NC(=O)Nc1ccccc1)Oc1ccccc1 (stereo not drawn) | inactive: 0.467% |
| O=C(COc1ccccc1)OC1CN2CCC1CC2 (stereo not drawn) | inactive: 4.19% |
| Cc1cc(C)cc(OP(C)(=O)Nc2ccc(SC(F)(F)F)cc2)c1 (stereo not drawn) | inactive: 5.51% |
| O=C(Nc1ccncc1[N+](=O)[O-])c1ccc([N+](=O)[O-])cc1[N+](=O)[O-] | inactive: 3.73% |
| CP(=O)(Nc1ccc(SC(F)(F)F)cc1)Oc1ccc(Cl)cc1 (stereo not drawn) | inactive: 3.16% |
| Cc1cccc(C)c1OP(C)(=O)Nc1ccc(SC(F)(F)F)cc1 (stereo not drawn) | inactive: 2.15% |
| COP1(=S)c2c(C)nn(CCC#N)c2N=C(c2ccc(F)cc2)N1C (stereo not drawn) | inactive: 1.15% |
| CP(=O)(Oc1ccccc1)OC(c1ccccc1)C(F)(F)F (stereo not drawn) | inactive: 1.44% |

| SMILES | inhibition |
| --- | --- |
| Cc1cc(SC(NC=O)C(Cl)(Cl)Cl)ncn1 (stereo not drawn) | inactive: -0.849% |
| O=P(Nc1ccccn1)(c1cccc2ccccc12)c1cccc2ccccc12 | inactive: 1.77% |
| COc1ccccc1OP(C)(=O)Nc1ccccc1 (stereo not drawn) | inactive: 0.604% |
| CP(=O)(Nc1ccccc1Br)Oc1ccccc1 (stereo not drawn) | inactive: 1.8% |
| O=[N+]([O-])c1ccc(Nc2ccc(Oc3ccc([N+](=O)[O-])cc3[N+](=O)[O-])cc2)c([N+](=O)[O-])c1 | inactive: 7.63% |
| CP(=S)(Nn1cnnc1)Oc1ccccc1 (stereo not drawn) | inactive: 3.85% |
| CCOC(=O)Nc1cccc([As](=O)(O)O)c1 | inactive: 1.37% |
| CCCCOc1ccc(C(=O)NCC2(N3CCCCC3)CCCCC2)cc1OC | inactive: 1.38% |
| COc1ccc(NC(=NP(=O)(N2CCOCC2)N2CCOCC2)N2CCOCC2)cc1 | inactive: 0.402% |
| Cc1cc(SC(NC(=O)c2ccccc2)C(Cl)(Cl)Cl)nc(C(C)C)n1 (stereo not drawn) | inactive: -4.85% |
| CCOC(=O)Nc1ccc([As](=O)(O)O)c(O)c1 | inactive: 3.68% |
| CC1CCNP(=O)(N(CCCl)CCCl)O1 (stereo not drawn) | inactive: 3.98% |
| CCN(CC)C(=S)SC(NC=O)C(Cl)(Cl)Cl (stereo not drawn) | inactive: -3.8% |
| O=C(OC1CN2CCC1CC2)c1cccc2[nH]cnc12 (stereo not drawn) | inactive: 1.09% |
| CC(C)NC(=O)NP(=O)(Oc1ccccc1)Oc1ccccc1 | inactive: 1.26% |
| COc1ccccc1OP(C)(=O)Nc1cc(Cl)ccc1C (stereo not drawn) | inactive: 4.86% |
| O=[N+]([O-])c1cc([N+](=O)[O-])c(-c2ccn[nH]2)s1 | inactive: 8.72% |
| COc1ccc(OP(C)(=O)Nc2cccc(F)c2)cc1 (stereo not drawn) | inactive: 3.76% |
| Cc1cc(C)cc(OP(C)(N)=O)c1 (stereo not drawn) | inactive: -0.253% |
| CCOC(=O)c1ccc(NP(C)(=O)Oc2ccccc2)cc1 (stereo not drawn) | inactive: 1.78% |
| ClCCSc1nnc(-c2cccnc2)o1 | inactive: 5.39% |
